Assay results reported in ChEMBL document CHEMBL2218924, “A broad activity screen in support of a chemogenomic map for kinase signalling research and drug discovery” (Biochem J, 2013).
For part of these data: Shown are results outside the selection of strong results, which stands elsewhere. The entries are a selection whose mix differs from that of the whole data set.

Amino acid sequences for entries named in this document (tags omitted). A change or cut given only in a name is not applied to a line headed by its entry.
UniProt O43318: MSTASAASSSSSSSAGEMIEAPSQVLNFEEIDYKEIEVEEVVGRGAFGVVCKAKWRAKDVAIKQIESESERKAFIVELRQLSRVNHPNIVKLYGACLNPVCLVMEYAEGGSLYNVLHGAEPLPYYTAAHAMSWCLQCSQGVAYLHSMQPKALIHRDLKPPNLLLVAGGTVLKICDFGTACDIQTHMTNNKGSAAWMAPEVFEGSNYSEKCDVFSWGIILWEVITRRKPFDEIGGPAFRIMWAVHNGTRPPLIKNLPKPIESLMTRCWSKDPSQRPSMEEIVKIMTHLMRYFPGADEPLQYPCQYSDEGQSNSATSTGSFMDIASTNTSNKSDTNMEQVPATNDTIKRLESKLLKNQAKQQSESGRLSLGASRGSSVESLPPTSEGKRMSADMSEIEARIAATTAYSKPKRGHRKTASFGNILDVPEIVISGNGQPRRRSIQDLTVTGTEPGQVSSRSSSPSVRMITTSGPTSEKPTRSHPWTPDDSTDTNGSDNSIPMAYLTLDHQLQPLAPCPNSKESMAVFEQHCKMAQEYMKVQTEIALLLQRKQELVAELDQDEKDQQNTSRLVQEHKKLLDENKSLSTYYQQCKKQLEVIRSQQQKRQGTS
UniProt P31749: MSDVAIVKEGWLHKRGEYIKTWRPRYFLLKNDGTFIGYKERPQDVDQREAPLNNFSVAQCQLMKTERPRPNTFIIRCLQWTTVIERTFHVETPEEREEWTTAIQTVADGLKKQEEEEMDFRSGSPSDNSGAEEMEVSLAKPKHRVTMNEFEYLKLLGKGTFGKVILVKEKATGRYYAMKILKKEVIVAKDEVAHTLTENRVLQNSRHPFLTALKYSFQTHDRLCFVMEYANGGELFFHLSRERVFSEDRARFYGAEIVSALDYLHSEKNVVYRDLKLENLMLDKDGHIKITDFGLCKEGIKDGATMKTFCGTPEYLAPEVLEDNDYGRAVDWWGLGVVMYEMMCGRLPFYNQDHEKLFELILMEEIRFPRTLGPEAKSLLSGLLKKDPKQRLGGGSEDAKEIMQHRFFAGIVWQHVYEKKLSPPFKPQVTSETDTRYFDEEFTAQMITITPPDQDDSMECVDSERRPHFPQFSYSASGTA
UniProt Q12851: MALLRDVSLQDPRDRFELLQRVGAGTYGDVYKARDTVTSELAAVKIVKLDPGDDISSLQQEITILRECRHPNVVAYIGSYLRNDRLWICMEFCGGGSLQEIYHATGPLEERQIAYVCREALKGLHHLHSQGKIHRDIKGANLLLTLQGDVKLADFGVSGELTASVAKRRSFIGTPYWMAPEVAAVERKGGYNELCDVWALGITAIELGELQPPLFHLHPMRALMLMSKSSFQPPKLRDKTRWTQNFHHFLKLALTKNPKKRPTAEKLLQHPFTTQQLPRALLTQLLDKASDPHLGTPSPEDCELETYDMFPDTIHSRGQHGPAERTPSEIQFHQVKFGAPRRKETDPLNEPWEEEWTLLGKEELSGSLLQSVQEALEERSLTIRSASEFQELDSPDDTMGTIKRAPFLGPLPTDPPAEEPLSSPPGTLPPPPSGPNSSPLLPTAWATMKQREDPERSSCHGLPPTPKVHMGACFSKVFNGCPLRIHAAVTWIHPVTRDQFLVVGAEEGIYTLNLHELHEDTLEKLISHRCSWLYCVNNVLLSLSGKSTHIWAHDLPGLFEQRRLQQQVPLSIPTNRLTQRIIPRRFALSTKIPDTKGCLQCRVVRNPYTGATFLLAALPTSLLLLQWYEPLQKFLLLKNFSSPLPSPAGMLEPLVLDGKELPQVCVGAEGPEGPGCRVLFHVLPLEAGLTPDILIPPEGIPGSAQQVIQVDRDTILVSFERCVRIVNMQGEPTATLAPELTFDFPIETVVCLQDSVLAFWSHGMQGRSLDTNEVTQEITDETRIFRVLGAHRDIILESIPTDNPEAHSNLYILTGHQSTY
UniProt P22607, whole entry, looked up: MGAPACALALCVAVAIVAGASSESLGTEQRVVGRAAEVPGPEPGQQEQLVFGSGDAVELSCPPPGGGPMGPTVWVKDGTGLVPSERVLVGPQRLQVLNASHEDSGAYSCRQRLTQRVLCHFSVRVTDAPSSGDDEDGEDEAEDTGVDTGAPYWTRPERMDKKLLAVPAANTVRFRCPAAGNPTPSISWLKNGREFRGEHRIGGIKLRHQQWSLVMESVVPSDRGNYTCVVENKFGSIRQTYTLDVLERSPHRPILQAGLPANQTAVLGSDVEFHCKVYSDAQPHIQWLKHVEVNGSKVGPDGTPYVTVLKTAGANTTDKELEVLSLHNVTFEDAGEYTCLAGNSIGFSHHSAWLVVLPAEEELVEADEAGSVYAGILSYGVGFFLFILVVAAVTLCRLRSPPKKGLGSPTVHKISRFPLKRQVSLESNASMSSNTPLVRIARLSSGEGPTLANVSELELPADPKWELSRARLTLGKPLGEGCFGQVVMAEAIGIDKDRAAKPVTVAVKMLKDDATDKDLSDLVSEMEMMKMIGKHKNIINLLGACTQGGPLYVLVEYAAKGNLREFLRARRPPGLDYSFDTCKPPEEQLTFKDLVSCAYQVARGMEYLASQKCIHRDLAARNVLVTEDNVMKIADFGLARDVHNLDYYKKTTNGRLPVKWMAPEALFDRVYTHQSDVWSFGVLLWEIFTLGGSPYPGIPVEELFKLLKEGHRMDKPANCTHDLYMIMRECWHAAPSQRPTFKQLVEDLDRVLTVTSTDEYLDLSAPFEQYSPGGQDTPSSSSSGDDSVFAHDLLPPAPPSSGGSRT
UniProt O15146: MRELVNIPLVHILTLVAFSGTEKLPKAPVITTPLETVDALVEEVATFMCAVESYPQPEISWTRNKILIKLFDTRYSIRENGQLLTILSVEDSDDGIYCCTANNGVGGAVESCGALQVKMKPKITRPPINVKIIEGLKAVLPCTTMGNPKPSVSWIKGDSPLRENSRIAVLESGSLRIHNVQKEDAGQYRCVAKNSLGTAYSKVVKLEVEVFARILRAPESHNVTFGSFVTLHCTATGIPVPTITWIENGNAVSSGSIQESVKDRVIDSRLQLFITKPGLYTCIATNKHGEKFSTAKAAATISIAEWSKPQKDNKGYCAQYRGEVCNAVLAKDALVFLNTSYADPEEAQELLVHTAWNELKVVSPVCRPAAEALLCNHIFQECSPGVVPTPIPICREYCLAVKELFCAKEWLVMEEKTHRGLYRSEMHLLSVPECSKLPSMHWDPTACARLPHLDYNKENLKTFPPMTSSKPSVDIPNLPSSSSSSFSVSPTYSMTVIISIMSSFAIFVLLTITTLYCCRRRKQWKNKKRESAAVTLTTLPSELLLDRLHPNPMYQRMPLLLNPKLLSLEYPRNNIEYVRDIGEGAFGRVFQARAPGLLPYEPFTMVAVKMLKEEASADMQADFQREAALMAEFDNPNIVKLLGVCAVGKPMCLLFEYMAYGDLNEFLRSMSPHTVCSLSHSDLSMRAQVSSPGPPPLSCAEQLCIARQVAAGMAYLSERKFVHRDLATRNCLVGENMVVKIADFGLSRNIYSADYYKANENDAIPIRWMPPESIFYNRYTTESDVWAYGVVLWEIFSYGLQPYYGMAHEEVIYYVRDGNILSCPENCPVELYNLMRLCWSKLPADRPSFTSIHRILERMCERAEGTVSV
UniProt P08581: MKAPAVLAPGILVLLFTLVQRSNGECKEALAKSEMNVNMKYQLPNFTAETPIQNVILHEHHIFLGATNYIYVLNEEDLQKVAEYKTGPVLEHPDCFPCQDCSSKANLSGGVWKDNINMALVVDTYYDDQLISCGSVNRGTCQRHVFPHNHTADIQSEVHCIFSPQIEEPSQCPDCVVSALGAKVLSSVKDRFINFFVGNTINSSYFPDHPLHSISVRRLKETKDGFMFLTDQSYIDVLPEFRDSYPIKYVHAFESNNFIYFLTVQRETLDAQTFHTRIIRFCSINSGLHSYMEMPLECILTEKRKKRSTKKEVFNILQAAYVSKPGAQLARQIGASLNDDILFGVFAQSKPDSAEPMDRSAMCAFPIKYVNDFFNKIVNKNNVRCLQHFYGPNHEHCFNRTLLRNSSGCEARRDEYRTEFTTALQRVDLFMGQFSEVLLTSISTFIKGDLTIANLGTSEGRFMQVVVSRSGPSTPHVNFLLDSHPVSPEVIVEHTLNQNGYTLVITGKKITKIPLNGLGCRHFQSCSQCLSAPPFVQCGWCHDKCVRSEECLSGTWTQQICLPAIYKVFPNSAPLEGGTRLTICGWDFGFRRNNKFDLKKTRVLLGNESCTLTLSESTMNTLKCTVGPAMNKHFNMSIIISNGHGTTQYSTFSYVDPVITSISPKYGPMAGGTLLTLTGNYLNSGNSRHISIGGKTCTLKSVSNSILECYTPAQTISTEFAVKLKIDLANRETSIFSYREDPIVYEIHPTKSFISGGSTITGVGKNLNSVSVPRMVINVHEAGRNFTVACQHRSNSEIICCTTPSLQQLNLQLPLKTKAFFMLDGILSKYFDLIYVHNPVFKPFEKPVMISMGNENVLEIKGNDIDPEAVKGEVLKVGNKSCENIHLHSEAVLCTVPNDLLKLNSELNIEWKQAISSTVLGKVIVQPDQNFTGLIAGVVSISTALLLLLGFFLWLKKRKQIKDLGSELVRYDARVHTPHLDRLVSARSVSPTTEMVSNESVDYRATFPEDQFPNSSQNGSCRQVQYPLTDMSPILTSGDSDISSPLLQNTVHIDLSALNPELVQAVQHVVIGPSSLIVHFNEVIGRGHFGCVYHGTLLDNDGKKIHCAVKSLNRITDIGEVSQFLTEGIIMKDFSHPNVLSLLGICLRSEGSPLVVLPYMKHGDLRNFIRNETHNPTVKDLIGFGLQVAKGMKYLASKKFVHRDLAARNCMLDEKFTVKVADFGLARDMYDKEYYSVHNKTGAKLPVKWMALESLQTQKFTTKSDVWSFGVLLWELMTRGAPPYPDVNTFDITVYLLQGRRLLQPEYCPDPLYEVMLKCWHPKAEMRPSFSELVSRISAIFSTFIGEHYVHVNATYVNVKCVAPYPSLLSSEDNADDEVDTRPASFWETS
UniProt Q9NWZ3, whole entry: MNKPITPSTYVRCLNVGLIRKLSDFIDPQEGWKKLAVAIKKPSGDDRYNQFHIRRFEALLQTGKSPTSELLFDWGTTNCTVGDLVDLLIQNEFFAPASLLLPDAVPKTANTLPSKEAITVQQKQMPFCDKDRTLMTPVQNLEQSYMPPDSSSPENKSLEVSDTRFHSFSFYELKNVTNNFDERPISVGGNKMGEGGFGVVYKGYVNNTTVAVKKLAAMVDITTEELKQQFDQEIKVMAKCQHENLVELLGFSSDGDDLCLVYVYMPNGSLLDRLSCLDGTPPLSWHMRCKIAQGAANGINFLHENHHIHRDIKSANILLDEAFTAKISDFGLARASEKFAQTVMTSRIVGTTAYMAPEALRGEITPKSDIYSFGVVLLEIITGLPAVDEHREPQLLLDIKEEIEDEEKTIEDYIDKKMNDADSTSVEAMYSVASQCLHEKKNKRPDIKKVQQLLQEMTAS

How the values were obtained:
[1] = biological target: Mitogen-activated protein kinase kinase kinase 7 (Homo sapiens) (UniProt O43318); conditions: at 1 µM
[2] = biological target: T1, Serine/threonine-protein kinase ULK2 (Homo sapiens) (UniProt Q8IYT8); conditions: at 10 µM
T1 sequence (whole entry): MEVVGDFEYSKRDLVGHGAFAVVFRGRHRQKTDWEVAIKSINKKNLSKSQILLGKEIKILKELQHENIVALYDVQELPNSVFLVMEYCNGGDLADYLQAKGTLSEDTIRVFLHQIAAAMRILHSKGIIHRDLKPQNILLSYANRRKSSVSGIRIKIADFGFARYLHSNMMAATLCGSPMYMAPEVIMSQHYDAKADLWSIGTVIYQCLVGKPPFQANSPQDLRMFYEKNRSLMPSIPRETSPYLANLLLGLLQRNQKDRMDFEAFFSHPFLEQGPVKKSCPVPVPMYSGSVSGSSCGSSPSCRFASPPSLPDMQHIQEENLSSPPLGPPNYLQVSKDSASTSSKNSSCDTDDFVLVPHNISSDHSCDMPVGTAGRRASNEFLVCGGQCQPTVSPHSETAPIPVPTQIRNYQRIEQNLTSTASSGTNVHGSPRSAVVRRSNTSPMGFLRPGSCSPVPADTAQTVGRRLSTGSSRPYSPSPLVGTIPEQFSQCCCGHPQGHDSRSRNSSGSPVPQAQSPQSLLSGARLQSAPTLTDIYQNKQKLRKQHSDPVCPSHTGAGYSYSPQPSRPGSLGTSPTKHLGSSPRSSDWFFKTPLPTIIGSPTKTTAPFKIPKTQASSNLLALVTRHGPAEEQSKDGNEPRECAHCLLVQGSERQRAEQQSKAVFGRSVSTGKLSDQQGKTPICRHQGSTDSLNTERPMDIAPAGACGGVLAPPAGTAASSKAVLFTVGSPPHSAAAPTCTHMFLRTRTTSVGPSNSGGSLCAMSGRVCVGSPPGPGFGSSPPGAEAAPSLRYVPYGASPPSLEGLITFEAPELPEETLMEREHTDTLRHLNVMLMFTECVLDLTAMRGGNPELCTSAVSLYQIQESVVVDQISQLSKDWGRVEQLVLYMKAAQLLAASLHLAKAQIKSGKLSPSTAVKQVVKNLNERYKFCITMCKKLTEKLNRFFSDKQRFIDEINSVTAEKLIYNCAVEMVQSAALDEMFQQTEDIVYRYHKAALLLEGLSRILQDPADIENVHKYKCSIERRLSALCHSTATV

[3] = biological target: RAC-alpha serine/threonine-protein kinase (Homo sapiens) (UniProt P31749); conditions: at 10 µM
[4] = biological target: Fibroblast growth factor receptor 4 (Homo sapiens) (UniProt P22455); conditions: at 1 µM
[5] = biological target: Mitogen-activated protein kinase kinase kinase kinase 2 (Homo sapiens) (UniProt Q12851); conditions: at 10 µM
[6] = biological target: T2, Dual specificity mitogen-activated protein kinase kinase 6 (Homo sapiens) (UniProt P52564); conditions: at 1 µM
T2 sequence (whole entry): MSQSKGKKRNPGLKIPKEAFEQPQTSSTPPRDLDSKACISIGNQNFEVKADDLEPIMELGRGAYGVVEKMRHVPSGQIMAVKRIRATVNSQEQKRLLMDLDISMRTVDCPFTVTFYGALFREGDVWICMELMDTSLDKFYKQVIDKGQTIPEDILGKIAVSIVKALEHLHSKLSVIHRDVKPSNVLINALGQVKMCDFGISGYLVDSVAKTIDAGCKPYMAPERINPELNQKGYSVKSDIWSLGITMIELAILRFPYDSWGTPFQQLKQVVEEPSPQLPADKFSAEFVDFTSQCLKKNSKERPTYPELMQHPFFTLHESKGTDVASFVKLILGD

[7] = biological target: Proto-oncogene tyrosine-protein kinase Src (Homo sapiens) (UniProt P12931); conditions: at 1 µM
[8] = biological target: Mitogen-activated protein kinase kinase kinase 7 (Homo sapiens) (UniProt O43318); conditions: at 10 µM
[9] = biological target: Fibroblast growth factor receptor 3 (Homo sapiens) (UniProt P22607); conditions: at 1 µM
[10] = biological target: Muscle, skeletal receptor tyrosine-protein kinase (Homo sapiens) (UniProt O15146); conditions: at 1 µM
[11] = biological target: Serine/threonine-protein kinase pim-3 (Homo sapiens) (UniProt Q86V86); conditions: at 10 µM
[12] = biological target: T3, Mitogen-activated protein kinase 13 (Homo sapiens) (UniProt O15264); conditions: at 1 µM
T3 sequence (whole entry): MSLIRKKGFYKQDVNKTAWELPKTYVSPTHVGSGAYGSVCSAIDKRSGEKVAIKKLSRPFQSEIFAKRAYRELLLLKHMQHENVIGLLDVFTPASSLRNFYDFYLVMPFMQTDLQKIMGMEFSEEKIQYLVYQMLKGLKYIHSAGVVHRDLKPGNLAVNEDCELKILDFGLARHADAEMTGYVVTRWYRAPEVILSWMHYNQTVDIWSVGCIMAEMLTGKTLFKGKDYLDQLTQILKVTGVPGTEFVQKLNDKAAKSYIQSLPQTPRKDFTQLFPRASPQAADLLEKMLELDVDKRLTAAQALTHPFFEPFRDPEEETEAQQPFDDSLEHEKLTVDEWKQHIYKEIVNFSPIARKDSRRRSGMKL

[13] = biological target: Hepatocyte growth factor receptor (Homo sapiens) (UniProt P08581); conditions: at 10 µM
[14] = biological target: Protein kinase C gamma type (Homo sapiens) (UniProt P05129); conditions: at 1 µM
[15] = biological target: Interleukin-1 receptor-associated kinase 4 (Homo sapiens) (UniProt Q9NWZ3); conditions: at 1 µM

Ic1cccc(CSc2nnc(-c3ccncc3)o2)c1
residual activity [1]: 83% | residual activity [2]: 87% | residual activity [3]: 111%

O=c1c2ccccc2[nH]c(=S)n1CCN1CCC(=C(c2ccc(F)cc2)c2ccc(F)cc2)CC1
residual activity [4]: 113%

Cc1ccc(NC2=CC(=O)c3sc(C)nc3C2=O)cc1
residual activity [5]: 76% | residual activity [6]: 118% | residual activity [7]: 106%

O=C1NC(=O)c2cc(Nc3ccc(F)cc3)c(Nc3ccc(F)cc3)cc21
residual activity [8]: 83%

Nc1n[nH]c2nnc(-c3c(-c4ccccc4)nn4ccccc34)cc12
residual activity [9]: 113% | residual activity [10]: 90%

Cn1cc(/C=C2\C(=O)Nc3ccc(S(N)(=O)=O)cc32)c2ccccc21
residual activity [11]: 99% | residual activity [12]: 114% | residual activity [13]: 102% | residual activity [14]: 95%

Oc1ccc(-c2nc(-c3ccc(F)cc3)c(-c3ccncc3)[nH]2)cc1
residual activity [15]: 107%
